In US20190300590A1 (PROTAGONIST THERAPEUTICS, published 2019):

Experiments:
[1] = target: T1, Recombinant human IL-23 (Humanzyme) (human, UniProt Q9NPF7 20-189; P29460 23-328); experiment: SPR, IL-23R_huFC captured on anti-human IgG, IL-23 as analyte
T1 sequence (looked up) 1: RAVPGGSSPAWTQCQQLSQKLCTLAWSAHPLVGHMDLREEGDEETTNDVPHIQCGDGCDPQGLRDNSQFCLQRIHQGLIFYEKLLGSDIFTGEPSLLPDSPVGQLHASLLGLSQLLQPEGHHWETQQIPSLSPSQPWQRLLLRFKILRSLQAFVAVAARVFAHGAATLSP
T1 sequence (looked up) 2: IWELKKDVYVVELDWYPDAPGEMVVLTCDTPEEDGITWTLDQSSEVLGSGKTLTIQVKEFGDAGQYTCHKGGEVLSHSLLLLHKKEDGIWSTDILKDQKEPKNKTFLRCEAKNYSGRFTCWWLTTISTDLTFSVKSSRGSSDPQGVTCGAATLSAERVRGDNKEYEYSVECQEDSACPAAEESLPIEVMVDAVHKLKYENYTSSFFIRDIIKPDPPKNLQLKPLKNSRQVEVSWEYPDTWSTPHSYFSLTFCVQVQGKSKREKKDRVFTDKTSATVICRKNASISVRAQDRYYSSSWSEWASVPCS

IL23R_huFC [2] = target: T2, IL23R_huFC (human, UniProt Q5VWK5 24-353); experiment: IL23-IL23R competitive ELISA
T2 sequence (looked up): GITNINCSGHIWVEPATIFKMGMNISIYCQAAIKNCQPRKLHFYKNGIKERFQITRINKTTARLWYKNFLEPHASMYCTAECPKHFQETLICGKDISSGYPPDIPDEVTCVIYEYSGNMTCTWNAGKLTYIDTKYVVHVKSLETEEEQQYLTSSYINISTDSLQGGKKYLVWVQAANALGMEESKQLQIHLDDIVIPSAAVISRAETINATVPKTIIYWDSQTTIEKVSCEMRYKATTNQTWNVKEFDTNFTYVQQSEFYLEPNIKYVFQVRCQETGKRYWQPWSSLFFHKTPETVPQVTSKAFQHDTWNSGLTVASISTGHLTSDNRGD

IL23R_huFC [3] = target: T3, IL23R_huFC (human, UniProt Q5VWK5 24-353); experiment: IL23-IL23R competitive binding ELISA
T3 sequence (looked up): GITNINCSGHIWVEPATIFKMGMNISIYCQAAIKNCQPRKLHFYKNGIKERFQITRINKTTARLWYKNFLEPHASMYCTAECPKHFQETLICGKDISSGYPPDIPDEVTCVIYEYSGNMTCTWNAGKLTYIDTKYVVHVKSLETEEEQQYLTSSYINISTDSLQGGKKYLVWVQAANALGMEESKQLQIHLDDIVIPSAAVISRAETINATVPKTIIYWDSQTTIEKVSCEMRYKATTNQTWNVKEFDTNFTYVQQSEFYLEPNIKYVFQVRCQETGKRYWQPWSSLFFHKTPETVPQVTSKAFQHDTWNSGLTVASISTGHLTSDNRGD

B1: Recombinant human IL-23R_huFC (RnD) (Fc fusion, UniProt Q5VWK5 24-353, looked up, not shown: a dimerising Fc or GST)
chain: GITNINCSGHIWVEPATIFKMGMNISIYCQAAIKNCQPRKLHFYKNGIKERFQITRINKTTARLWYKNFLEPHASMYCTAECPKHFQETLICGKDISSGYPPDIPDEVTCVIYEYSGNMTCTWNAGKLTYIDTKYVVHVKSLETEEEQQYLTSSYINISTDSLQGGKKYLVWVQAANALGMEESKQLQIHLDDIVIPSAAVISRAETINATVPKTIIYWDSQTTIEKVSCEMRYKATTNQTWNVKEFDTNFTYVQQSEFYLEPNIKYVFQVRCQETGKRYWQPWSSLFFHKTPETVPQVTSKAFQHDTWNSGLTVASISTGHLTSDNRGD
Kd [1]: 1.69 nM

CRTWQCYWRENGAK (Ac-; [(D)Lys]; -NH2) [Ac-CRTWQCYWRENGA-[(D)Lys]-NH2]
IC50 (IL23R_huFC [2]): 102 nM

CRTWQCYWQEKGTD (Ac; NH2) [Ac-CRTWQCYWQEKGTD-NH2]
IC50 (IL23R_huFC [3]): 118 nM

CQTWQCYWLETG (Ac; hLeu; NH2) [Ac-CQTWQCYW-[hLeu]-ETG-NH2]
IC50 (IL23R_huFC [3]): 818 nM

CQTWQCYWLPNG (Ac; hLeu; NH2) [Ac-CQTWQCYW-[hLeu]-PNG-NH2]
IC50 (IL23R_huFC [3]): 4830 nM

CQTWQCYWLTNG (Ac; hLeu; NH2) [Ac-CQTWQCYW-[hLeu]-TNG-NH2]
IC50 (IL23R_huFC [3]): 109 nM

CQTWQCYWLENGL (Ac; hLeu; NH2) [Ac-CQTWQCYW-[hLeu]-ENGL-NH2]
IC50 (IL23R_huFC [3]): 174 nM

CQTWQCYWRNFESG (Ac; NH2) [Ac-CQTWQCYWRNFESG-NH2]
IC50 (IL23R_huFC [3]): 315 nM
